## scFv variants of Ab-14 (light chain) against a SARS-CoV-2 spike peptide

Values reported by Engelhart et al. 2022, doi:10.1038/s41597-022-01779-4 (FLAb copy).

Target peptide (SARS-CoV-2 spike, HR2 region): PDVDLGDISGINAS

Ab-14 is the parent antibody, in scFv form: VH, then three GGGGS repeats, then VL. The heavy chain is unchanged in all variants.
VH: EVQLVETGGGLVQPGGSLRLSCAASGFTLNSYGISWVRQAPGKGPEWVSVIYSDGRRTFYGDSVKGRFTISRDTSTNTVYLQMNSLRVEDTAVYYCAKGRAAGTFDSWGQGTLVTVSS
VL: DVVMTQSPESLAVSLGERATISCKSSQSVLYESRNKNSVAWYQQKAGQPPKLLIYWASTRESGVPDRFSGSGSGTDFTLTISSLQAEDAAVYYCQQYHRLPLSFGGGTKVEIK

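The parent was found by panning a naive human phage display library on the peptide. Library AAYL50 holds single substitutions and randomly drawn double and triple substitutions in the CDRs. AlphaSeq pools MATa yeast showing the antibodies with MATalpha yeast showing the peptide. Mating (16 h, 30 °C) was followed by selection of diploids and sequencing of their barcodes. Scores were corrected for input abundance and mapped to Kd with protein pairs of known affinity run in the same pool. The assay was run in three technical replicates.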

The parent's light chain CDRs are KSSQSVLYESRNKNSVA, WASTRES, QQYHRLPLS; each variant's own CDRs replace them letter for letter.
All variants listed here change N35 of the VL, counted from its first residue.
Scale: log10 of Kd in nM, estimated from mating counts; low values are strong binders.
Averages over replicates are reported, and they cover detected replicates only.
A pair that was not seen in any replicate is written "nd"; this usually means weak binding, but a binder can also be missed.
The list is sorted by this average, lowest first, undetected variants last.
In this assay the parent's reference entry averaged 0.65; its copy inside this library read 1.68.
Nonspecific signal, from three strains lacking the peptide, appeared in 18% of pairings of library AAYL50, centred on 4.19 (5% of these signals below 2.99); values are not corrected for it. The control count says in how many pairings with the empty strains this scFv gave a signal.

* KSSQSVLYESAMKNSVA, WASTRES, QQYCRLPLS = 0.48 (3 of 3 replicates; controls 1 of 9)
* KSSLSVLYESREKNSVA, WASTRES, QQYARLPLS = 0.50 (3 of 3 replicates; controls 3 of 9)
* KSSNSVLQESRHKNSVA, WASTRES, QQYHRLPLS = 0.68 (3 of 3 replicates; controls 2 of 9)
* KSSQSVLYESRSKNSVA, WASIRES, HQYHRLPLS = 0.88 (3 of 3 replicates; controls 3 of 9)
* KVSQSVLYEPRAKNSVA, WASTRES, QQYHRLPLS = 0.99 (3 of 3 replicates; controls 4 of 9)
* KSSESVLYESRWKNSVA, WASTRES, QQYYRLPLS = 1.02 (3 of 3 replicates; controls 0 of 9)
* KSSQSVAYESRVKNSVA, WASTRNS, QQYHRLPLS = 1.04 (3 of 3 replicates; controls 4 of 9)
* KSSQSVLYEPRDWNSVA, WASTRES, QQYHRLPLS = 1.27 (3 of 3 replicates; controls 4 of 9)
* KSQQSVLYESREKNSVA, WASTRES, QQYHRLPLS = 1.27 (3 of 3 replicates; controls 4 of 9)
* KCSQSVLYESRHKNSVA, WASTREL, QQYHRLPLS = 1.28 (3 of 3 replicates; controls 1 of 9)
* MSSQSVLYESRWKNSVA, WASTRED, QQYHRLPLS = 1.72 (3 of 3 replicates; controls 0 of 9)
* KSSQSVLYESRITNSVA, RASTRES, QQYHRLPLS = 2.22 (3 of 3 replicates; controls 6 of 9)
* KSSQSVLYEKRDKNSVA, WACTRES, QQYHRLPLS = 2.98 (1 of 3 replicates; controls 1 of 9)
* KSSISVLYESRYKNSVA, WAMTRES, QQYHRLPLS = 3.13 (3 of 3 replicates; controls 2 of 9)
* KSEQSVLYESRDKNSVA, WALTRES, QQYHRLPLS = 3.36 (1 of 3 replicates; controls 2 of 9)
* KSHQSVLYESRYKNSVA, WASTRES, QQYHRLPLP = 3.43 (3 of 3 replicates; controls 1 of 9)
* KSSQSVLYESRTKNSVA, WAWTREL, QQYHRLPLS = 3.68 (2 of 3 replicates; controls 2 of 9)
* KPSQSVLYESRMKNSVA, WAQTRES, QQYHRLPLS = 3.75 (3 of 3 replicates; controls 0 of 9)
* KSSQSVLYESRVKNSVA, WASTRES, QQYHMLPVS = 3.90 (1 of 3 replicates; controls 1 of 9)
* MSSDSVLYESRKKNSVA, WASTRES, QQYHRLPLS = 3.91 (3 of 3 replicates; controls 3 of 9)
* KSSQCVLYESRFKNSVA, WASTRES, QWYHRLPLS = 4.43 (3 of 3 replicates; controls 4 of 9)
* KSSQSVLYESRIGNSVA, WASTRES, QQYHRLMLS = 5.40 (2 of 3 replicates; controls 2 of 9)
* KSSQSVLYESRKKNSVA, WASTVRS, QQYHRLPLS = nd (0 of 3 replicates; controls 0 of 9)
* KSSQSVLYESRRKNSVA, CASTPES, QQYHRLPLS = nd (0 of 3 replicates; controls 3 of 9)
* KSSQSVLYESRDKNMVA, WASTRES, QQYHSLPLS = nd (0 of 3 replicates; controls 0 of 9)
* KSSQSVLYESRVKNSVA, WASTRPS, QQYHGLPLS = nd (0 of 3 replicates; controls 0 of 9)
* KSSQSVLYESRDKNSVA, WASARES, EQYHRLPLS = nd (0 of 3 replicates; controls 4 of 9)
* KSSQSDLYESRWKNSVA, WASTRES, QQYHRNPLS = nd (0 of 3 replicates; controls 3 of 9)
* KSSQSVLYESRAKNSVY, WASTRPS, QQYHRLPLS = nd (0 of 3 replicates; controls 4 of 9)
* KSSQSVLYESRHKNSVP, WASGRES, QQYHRLPLS = nd (0 of 3 replicates; controls 0 of 9)
* KSSQSVMYESRAKNSVA, WASTRES, QQRHRLPLS = nd (0 of 3 replicates; controls 1 of 9)

Picked from the list: the 3 lowest averages where every replicate gave a value.

* KSSQSVLYESAMKNSVA, WASTRES, QQYCRLPLS = 0.48 (3 of 3 replicates; controls 1 of 9)
* KSSLSVLYESREKNSVA, WASTRES, QQYARLPLS = 0.50 (3 of 3 replicates; controls 3 of 9)
* KSSNSVLQESRHKNSVA, WASTRES, QQYHRLPLS = 0.68 (3 of 3 replicates; controls 2 of 9)